Data from patent US20220098297A1.
Like-named read-outs stand apart in the source and are kept apart here. Blank lines part the entries; values can stand above or below the substance they belong to.

Experiments:
[1] = molecular target: cynoFcRN-C-His (monkey (cyno)) (UniProt Q8SPV9); test: BLI (Octet QK), FcRn-His on Ni-NTA biosensor, antibody as analyte, pH 7.4
[2] = molecular target: hFcRN-C-His (human) (UniProt P55899); test: BLI (Octet QK), FcRn-His on Ni-NTA biosensor, antibody as analyte, pH 6.0; pH 6.0
[3] = molecular target: cynoFcRN-C-His (monkey (cyno)) (UniProt Q8SPV9); test: BLI (Octet QK), FcRn-His on Ni-NTA biosensor, antibody as analyte, pH 6.0
[4] = molecular target: Recombinant human Fc gamma RIIIA/CD16a protein (human) (UniProt P08637); test: indirect ELISA, CD16a coated at 1 µg/ml, antibody diluted 4-fold from 1380 nM, anti-human IgG F(ab')2-specific HRP, absorbance 450 nm
[5] = molecular target: human IL-17A (human) (UniProt Q16552); test: cell-based or functional assay
[6] = molecular target: human TNF-α (human) (UniProt P01375); test: cell-based or functional assay
[7] = molecular target: human IL-17A (human) (UniProt Q16552); test: cell-based or functional assay; remark: listed apart in the source
[8] = molecular target: human TNF-α (human) (UniProt P01375); test: cell-based or functional assay; remark: listed apart in the source
[9] = molecular target: hFcRN-C-His (human) (UniProt P55899); test: BLI (Octet QK), FcRn-His on Ni-NTA biosensor, antibody as analyte, pH 7.4
[10] = molecular target: human IL-17A (human) (UniProt Q16552); test: cell-based or functional assay; remark: listed apart in the source
[11] = molecular target: human TNF-α (human) (UniProt P01375); test: cell-based or functional assay; remark: listed apart in the source
[12] = molecular target: human IL-17A (human) (UniProt Q16552); test: cell-based or functional assay; remark: listed apart in the source
[13] = molecular target: human TNF-α (human) (UniProt P01375); test: cell-based or functional assay; remark: listed apart in the source
[14] = molecular target: hFcRN-C-His (human) (UniProt P55899); test: BLI (Octet QK), FcRn-His on Ni-NTA biosensor, antibody as analyte, pH 6.0

Kd [1]: 4.24 nM
Kd [2]: 0.642 nM
Kd [3]: 0.599 nM
Substance: Humira (adalimumab) (antibody)

EC50 (read off the curve) [4]: 40 nM
Substance: Humira (adalimumab) (antibody; other documents disagree on this pair)

IC50, CXCL-1 secretion of HT-29 cells stimulated with IL-17A + TNF-α (co-neutralization); SDA-0070 CEX [5]: 0.0215 nM
IC50, CXCL-1 secretion of HT-29 cells stimulated with IL-17A; SDA-0070 CEX [5]: 0.0227 nM
IC50, CXCL-1 secretion of HT-29 cells stimulated with IL-17A + TNF-α (co-neutralization); SDA-0070 CEX [6]: 0.0215 nM
IC50, CXCL-1 secretion of HT-29 cells stimulated with TNF-α; SDA-0070 CEX [6]: 0.0251 nM
IC50, SEAP reporter of HEK-Blue IL-17 cells; SDA-0070 CEX [7]: 0.00446 nM
IC50, SEAP reporter of HEK-Blue IL-17 cells; SDA-0070 RD1601 [7]: 0.00454 nM
IC50, SEAP reporter of HEK-Blue TNF-α cells; SDA-0070 CEX [8]: 0.0198 nM
IC50, SEAP reporter of HEK-Blue TNF-α cells; SDA-0070 RD1601 [8]: 0.0233 nM
Kd [9]: 9.08 nM
koff [9]: 0.00583 s⁻¹
kon [9]: 641000 M⁻¹ s⁻¹
Kd [1]: 4.46 nM
koff [1]: 0.0042 s⁻¹
kon [1]: 943000 M⁻¹ s⁻¹
IC50, CXCL-1 secretion of HT-29 cells stimulated with IL-17A + TNF-α (co-neutralization); SDA-0070 CEX [10]: 0.0309 nM
IC50, CXCL-1 secretion of HT-29 cells stimulated with IL-17A + TNF-α (co-neutralization); SDA-0070 RD1601 [10]: 0.0277 nM
IC50, CXCL-1 secretion of HT-29 cells stimulated with IL-17A; SDA-0070 CEX [10]: 0.0605 nM
IC50, CXCL-1 secretion of HT-29 cells stimulated with IL-17A; SDA-0070 RD1601 [10]: 0.0552 nM
IC50, CXCL-1 secretion of HT-29 cells stimulated with IL-17A + TNF-α (co-neutralization); SDA-0070 CEX [11]: 0.0309 nM
IC50, CXCL-1 secretion of HT-29 cells stimulated with IL-17A + TNF-α (co-neutralization); SDA-0070 RD1601 [11]: 0.0277 nM
IC50, CXCL-1 secretion of HT-29 cells stimulated with TNF-α; SDA-0070 CEX [11]: 0.0336 nM
IC50, CXCL-1 secretion of HT-29 cells stimulated with TNF-α; SDA-0070 RD1601 [11]: 0.0302 nM
IC50, CXCL-1 secretion of HT-29 cells stimulated with IL-17A + TNF-α (co-neutralization); SDA-0070 CEX [12]: 0.0196 nM
IC50, CXCL-1 secretion of HT-29 cells stimulated with IL-17A + TNF-α (co-neutralization); SDA-0070 GFC [12]: 0.0182 nM
IC50, IL-6 production induced by TNF-α+IL-17A in patient-derived RA-FLS (RA03) [12]: 0.000369 nM
IC50, SEAP reporter of HEK-Blue IL-17 cells; SDA-0070 CEX [12]: 0.058 nM
IC50, hIL-6 secretion of commercial RA-FLS cells stimulated with IL-17A and TNF-α (co-neutralization) [12]: 0.0137 nM
IC50, hIL-6 secretion of commercial RA-FLS cells stimulated with hIL-17A [12]: 0.312 nM
IC50, CXCL-1 secretion of HT-29 cells stimulated with IL-17A + TNF-α (co-neutralization); SDA-0070 CEX [13]: 0.0196 nM
IC50, CXCL-1 secretion of HT-29 cells stimulated with IL-17A + TNF-α (co-neutralization); SDA-0070 GFC [13]: 0.0182 nM
IC50, IL-6 production induced by TNF-α+IL-17A in patient-derived RA-FLS (RA03) [13]: 0.000369 nM
IC50, SEAP reporter of HEK-Blue TNF-α cells; SDA-0070 CEX [13]: 0.0399 nM
IC50, hIL-6 secretion of commercial RA-FLS cells stimulated with IL-17A and TNF-α (co-neutralization) [13]: 0.0137 nM
IC50, hIL-6 secretion of commercial RA-FLS cells stimulated with hTNF-α [13]: 0.0307 nM
Kd [14]: 0.506 nM
koff [14]: 0.000856 s⁻¹
kon [14]: 1.69e+06 M⁻¹ s⁻¹
Kd [3]: 0.461 nM
koff [3]: 0.00075 s⁻¹
kon [3]: 1.63e+06 M⁻¹ s⁻¹
Substance: SDA-0070 (bispecific antibody)
